Screens from PubChem.
Compounds with a hit are over-represented: about 2.1% of the library has one in this group of screens.
PGC1a acetyl inh = PGC1a acetylation modulation, inhibitor mode; inhibition, % at 15.6 µM; U2OS PGC1a acetylation, AlphaScreen anti-acetyl-lysine; with virally co-expressed GCN5 acetyltransferase; 350,000 tested, 0.17% active; AID 651687;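 active means every replicate shows inhibition of at least 40%; inconclusive means mean inhibition at least 40% but some replicate below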
miR122 inh = blocks miR-122 activity in Huh7 sensor cells; activation (reporter increase), % at 12.5 µM; Huh7 miR-122 Renilla luciferase sensor, 48 h; neutral wells = 0, positive control = 100; 340,000 tested, 0.3% active;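 active means mean replicate activation score at least 90 and every replicate individually at or above 90; inconclusive means only one of the two criteria met; inactive means neither criterion met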;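 further: higher luciferase means less miR-122 activity so hits act as miR-122 inhibitors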
UUG fidelity = modulators of yeast start codon fidelity, primary screen, whole organism, S. cerevisiae, single point, plate reader | AID 602363, 2012 | S. cerevisiae UUG-firefly luciferase reporter, luminescence/redox ratio | activity score, % at 18.7 µM | hit rate 0.13% among 350,000;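 active = replicate mean at a twofold rise or more, about +100% in these data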;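 also: firefly luciferase made from a UUG start codon reports start codon fidelity; reporter light over untreated wells divided by growth signal over untreated wells; some hits fall short of that in this replicate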
MITF TRPM1 inh = reduces MITF-dependent TRPM1 promoter luciferase signal. inhibition, % at 12.5 µM. AID 488899. SK-MEL-5 TRPM1 promoter luciferase, 24 h. 330,000 tested, 0.83% active;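 active means mean inhibition across replicates of 60% or more, whatever share of single replicates reaches that level; inconclusive means some that reach 60%, reason not given; inactive means mean inhibition across replicates below 60%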
Wnt bcat act = Wnt/beta-catenin pathway activation; 300,000 tested, 1.2% active; activation, % at 9.35 µM; Wnt/beta-catenin reporter cell assay, activator, plate reader; in the data active means activation above about 30%, passing the limit was not always enough; inconclusive means no clear call, values can overlap the other calls
MITF TRPM1 HTS = increases MITF-driven TRPM1 promoter luciferase signal; SK-MEL-5 TRPM1-promoter luciferase, 24 h; % of positive control, neutral wells = 0; activation, % at 12.5 µM; 300,000 tested, 0.75% active; AID 588334;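 active means mean activation of at least 80% with every replicate also reaching 80%; inconclusive means mean reaches 80% but some replicate falls short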
Of the large screens only hits and unclear results are named; the others gave an inactive call; ! = a repeat was not active.

O=C(NCc1ccc(F)cc1)C(c1ccco1)N(C(=O)c1csnn1)c1ccccc1 (stereo not given)	none
Cc1noc(C)c1S(=O)(=O)Nc1ccc2c(c1)C(=O)N([C@@H](C)CO)C[C@H](C)[C@@H](CN(C)S(=O)(=O)c1ccc(Cl)cc1)OCCCC[C@@H](C)O2	none (no result: PGC1a acetyl inh, MITF TRPM1 inh, Wnt bcat act, MITF TRPM1 HTS)
Cc1ccc(OCCSc2ncccn2)c(C)c1	MITF TRPM1 HTS 153
c1cnc(SCCOc2cccc3ccccc23)nc1	MITF TRPM1 HTS 106 (no result: UUG fidelity, Wnt bcat act)
Cc1cccc(OCCOCCSc2ncccn2)c1	none (no result: Wnt bcat act)
CNC[C@@H]1Oc2ccc(NC(=O)C3CCCCC3)cc2C(=O)N([C@@H](C)CO)C[C@@H]1C	none (no result: MITF TRPM1 inh, Wnt bcat act, MITF TRPM1 HTS)
C[C@H](CO)N1C[C@H](C)[C@H](CN(C)C(=O)C2CCCCC2)Oc2cc(-c3ccccc3)ccc2S1(=O)=O	none (no result: MITF TRPM1 inh, Wnt bcat act, MITF TRPM1 HTS)
Cc1ccc2cc(NC(=O)Cc3ccccc3)ccc2n1	none (no result: MITF TRPM1 HTS)
Cc1ccc2cc(NC(=O)c3ccccc3C)ccc2n1	MITF TRPM1 HTS 100
CCc1ccc(C(=O)Nc2ccc3nc(C)ccc3c2)cc1	MITF TRPM1 HTS 99
O=C(Cc1ccccc1)N/N=C/c1ccc(OC(=O)/C=C\c2ccco2)cc1	Wnt bcat act 104
COC(=O)N/N=C/c1ccc(OC(=O)/C=C/c2ccco2)cc1	Wnt bcat act 53 (no result: MITF TRPM1 inh, MITF TRPM1 HTS)
COC(=O)c1c[nH]c2c1-c1cc(C(=O)OCc3ccccc3)n(S(=O)(=O)c3ccc(C)cc3)c1C(=O)C2=O	MITF TRPM1 inh 112 (no result: UUG fidelity, MITF TRPM1 HTS)
CC1=NN(c2nc(-c3ccc(C)cc3)cs2)C(=O)C1N=Nc1ccc(C(N)=O)cc1 (stereo not given)	MITF TRPM1 inh 102 (no result: UUG fidelity)
CN1C(=O)c2cc(NS(=O)(=O)c3cccc(F)c3)ccc2OC[C@H]2O[C@H](CC(=O)O)CC[C@@H]21	none (no result: MITF TRPM1 inh, Wnt bcat act, MITF TRPM1 HTS)
CCC(=O)N1C[C@@H](C)[C@@H](OC)CN(C)C(=O)c2ccc(NC(=O)NC(C)C)cc2OC[C@@H]1C	none (no result: MITF TRPM1 inh, Wnt bcat act, MITF TRPM1 HTS)
C/C(=N\NC(=O)C(C)Oc1ccc([N+](=O)[O-])cc1)c1ccccn1 (stereo not given)	MITF TRPM1 inh 83 (no result: UUG fidelity, Wnt bcat act)
Nc1nc2ncc(CNc3ccc(C(=O)N[C@@H](CCC(=O)O)C(=O)O)cc3)nc2c(=O)[nH]1	none
CN(Cc1cnc2nc(N)nc(N)c2n1)c1ccc(C(=O)N[C@@H](CCC(=O)O)C(=O)O)cc1	PGC1a acetyl inh 43!
O=C(Nc1ccon1)c1ccc(OC2CCCC2)cc1	Wnt bcat act 46, MITF TRPM1 HTS inconclusive (no result: PGC1a acetyl inh)
C[C@@H]1CCCCO[C@@H](CN(C)Cc2ccc3c(c2)OCO3)[C@H](C)CN([C@H](C)CO)C(=O)c2cc(NC(=O)c3ccccc3)ccc2O1	none (no result: MITF TRPM1 inh, Wnt bcat act, MITF TRPM1 HTS)
c1csc(-c2noc(COc3ccc4c(c3)CCCC4)n2)c1	Wnt bcat act 36, MITF TRPM1 HTS 140
Cc1ccc(S(=O)(=O)/N=C2/C=C(C3C(=O)CC(C)(C)CC3=O)C(=O)c3ccccc32)cc1	Wnt bcat act 63 (no result: MITF TRPM1 HTS)
CCCNC(=O)C[C@@H]1C[C@H]2c3cc(NC(=O)Nc4ccccc4)ccc3O[C@H]2[C@@H](CO)O1	none (no result: MITF TRPM1 inh, Wnt bcat act, MITF TRPM1 HTS)
COCCn1c(C)cc(C(=O)CSc2cc(C)c3ccccc3n2)c1C	none (no result: Wnt bcat act)
COCCn1c(C)cc(C(=O)CSc2nnc(C)s2)c1C	MITF TRPM1 inh 67
COCCn1c(C)cc(C(=O)COC(=O)c2cccc(O)c2)c1C	none (no result: UUG fidelity)
COCCn1c(C)cc(C(=O)COC(=O)c2cc3c(s2)CCC3)c1C	miR122 inh 315 (no result: PGC1a acetyl inh, MITF TRPM1 HTS)
COCCn1c(C)cc(C(=O)CSc2nc3ccccc3c(=O)n2Cc2ccco2)c1C	Wnt bcat act 55
CC(C)NC(=O)N1C[C@@H]2[C@H](c3ccccc31)[C@H](CO)N2Cc1ccccc1	none (no result: MITF TRPM1 inh, Wnt bcat act, MITF TRPM1 HTS)
CCCC#Cc1ccc2c(c1)O[C@H](CN(C)C(=O)Nc1ccccc1F)[C@@H](C)CN([C@@H](C)CO)S2(=O)=O	none (no result: UUG fidelity, MITF TRPM1 inh, Wnt bcat act, MITF TRPM1 HTS)
CS(=O)(=O)N1[C@@H]2c3ccc(C4=CCCCC4)c(=O)n3C[C@H]1[C@H](CO)[C@H]2C(=O)N1CCOCC1	none (no result: PGC1a acetyl inh, UUG fidelity, MITF TRPM1 inh, Wnt bcat act, MITF TRPM1 HTS)
Oc1ccc(/C=N/Nc2ccc(Cl)nn2)cc1O	none (no result: PGC1a acetyl inh, miR122 inh, UUG fidelity)
Cc1ccc(/C=N/Nc2ccc(Cl)nn2)cc1	Wnt bcat act 37, MITF TRPM1 HTS 95 (no result: miR122 inh, UUG fidelity)
C[C@@H]1CN([C@H](C)CO)C(=O)c2cccc(NS(=O)(=O)c3cn(C)cn3)c2O[C@@H]1CN(C)Cc1ccccc1	none (no result: PGC1a acetyl inh, MITF TRPM1 inh, Wnt bcat act, MITF TRPM1 HTS)
C[C@H](CO)N1C[C@H](C)[C@@H](CN(C)C(=O)Cc2ccccc2)OCCCC[C@H](C)Oc2ccc(NC(=O)c3ccccc3)cc2C1=O	none (no result: MITF TRPM1 inh, Wnt bcat act, MITF TRPM1 HTS)
